Data: PubChem BioAssay AID602449 (Sanford-Burnham Center for Chemical Genomics, 2012)
Only a part is listed here, and it is no random draw. Activity calls are given as the source filed them.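 How the source made its calls: active means inhibition of 50% or more, scaled per plate between neutral and stimulator controls; inactive means the rest.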

Assay: blockers of Ca2+-induced mitochondrial swelling – biochemical, isolated mouse mitochondria, absorbance, primary screen (AID 602449);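 further: 0% = DMSO wells given calcium and 100% = 1 mM EGTA wells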
Conditions: 30 min, at 10 µM, active compounds read high

Row | Structure (SMILES) | inhibition
1 | CCOC(=O)Nc1cccc([As](=O)(O)O)c1 | inactive: -0.2%
2 | O=P(Nc1ccccn1)(c1cccc2ccccc12)c1cccc2ccccc12 | inactive: -1.4%
3 | Cc1cc(SC(NC=O)C(Cl)(Cl)Cl)ncn1 (configuration not stated) | inactive: -0.4%
4 | O=[N+]([O-])c1ccc(Nc2ccc(Oc3ccc([N+](=O)[O-])cc3[N+](=O)[O-])cc2)c([N+](=O)[O-])c1 | inactive: 0.3%
5 | CCOC(=O)Nc1ccc([As](=O)(O)O)c(O)c1 | inactive: 0.8%
6 | O=C(O)C(O)c1ccc(N(CCCl)CCCl)cc1 (configuration not stated) | inactive: 0.2%
7 | CC1CCNP(=O)(N(CCCl)CCCl)O1 (configuration not stated) | inactive: -1.7%
8 | COP(=O)(OC)N1CC1c1ccccc1 (configuration not stated) | inactive: 0.6%
9 | CCCCOc1ccc(C(=O)NCC2(N3CCCCC3)CCCCC2)cc1OC | inactive: -0.9%
10 | Cc1cc(SC(NC(=O)c2ccccc2)C(Cl)(Cl)Cl)nc(C(C)C)n1 (configuration not stated) | inactive: -0.2%
11 | O=C(OC1CN2CCC1CC2)c1cccc([N+](=O)[O-])c1 (configuration not stated) | inactive: 0.5%
12 | CSc1ccc(Nc2c([N+](=O)[O-])cc([N+](=O)[O-])cc2[N+](=O)[O-])cc1 | active: 70.7%
13 | CCOC(=O)c1ccc(NC(=O)C(C)(CCl)SC)cc1 (configuration not stated) | inactive: 1.7%
14 | CCC(C)N(CC(C)C)C(=S)SC(NC(C)=O)C(Cl)(Cl)Cl (configuration not stated) | inactive: 0.3%
15 | COP1(=S)c2c(C)nn(CCC#N)c2N=C(c2ccc(F)cc2)N1C (configuration not stated) | inactive: -0.5%
16 | COC(=O)C1(C)COP(=O)(N2CCCC2)OC1 (configuration not stated) | inactive: 1.6%
17 | O=C(O)C(=O)c1ccc(N(CCCl)CCCl)cc1 | inactive: 0.1%
18 | O=C(COc1ccccc1)OC1CN2CCC1CC2 (configuration not stated) | inactive: -0.1%
19 | O=C(Nc1ccncc1[N+](=O)[O-])c1ccc([N+](=O)[O-])cc1[N+](=O)[O-] | inactive: 1%
20 | O=[N+]([O-])c1cc(Oc2ccc([N+](=O)[O-])cc2C(F)(F)F)cc([N+](=O)[O-])c1 | inactive: 2.3%
21 | COc1ccc(N/C(=N/P(=O)(N2CCOCC2)N2CCOCC2)N2CCOCC2)cc1 | inactive: 0%
22 | Cc1c2c(nc3ccccc13)SC(C(Cl)Cl)C2 (configuration not stated) | inactive: 2.7%
23 | O=C(OC1CN2CCC1CC2)C12CC3CC(CC(C3)C1)C2 (configuration not stated) | inactive: 20.5%
24 | Cc1cc(=O)[nH]c(N[N+](=O)[O-])n1 | inactive: -0.2%
25 | O=P1(N(CCCl)CCCl)OCCCN1CCCl (configuration not stated) | inactive: -0.9%
26 | O=P1(N(CCCl)CCCl)Nc2ccccc2N1 | inactive: -0.1%

Row | Structure (SMILES) | inhibition
27 | COc1ccc2nc(NP(=O)(c3ccccc3)c3ccccc3)sc2c1 | inactive: 0.2%
28 | COc1cc(I)ccc1[As](=O)(O)O | inactive: 0.6%
29 | ClCCSc1nnc(-c2cccnc2)o1 | inactive: 0.4%
30 | CC(C)c1ccc(OP(=O)(Nc2ccccn2)Oc2ccccc2F)cc1 (configuration not stated) | inactive: 14.9%
31 | COC(=O)C1(C)COP(=O)(N2CCCCCC2)OC1 (configuration not stated) | inactive: -0.5%
32 | CCN(CC)C(=S)SC(NC=O)C(Cl)(Cl)Cl (configuration not stated) | inactive: -0.8%
33 | O=C(OC1CN2CCC1CC2)c1cccc2[nH]cnc12 (configuration not stated) | inactive: -0.8%
34 | CC(C)NC(=O)NP(=O)(Oc1ccccc1)Oc1ccccc1 | inactive: -0.4%
35 | O=[N+]([O-])c1cc([N+](=O)[O-])c(-c2ccn[nH]2)s1 | inactive: 4.8%
36 | CC(C)NC[C@@H](O)COc1ccc(CC(N)=O)cc1 | inactive: -0.7%
37 | O=[As](O)(c1ccc(O)cc1)c1ccccc1O | inactive: 1.5%
38 | C[As](=O)(O)c1cccc(C(=O)O)c1 | inactive: -0.4%
39 | COc1cc(C(=O)NCC2(N3CCOCC3)CCCCC2)ccc1OCC(C)C | inactive: 1%
40 | O=[N+]([O-])c1ccc(-c2cc([N+](=O)[O-])c(O)c([N+](=O)[O-])c2)cc1 | active: 78.1%
41 | [N-]=[N+]=NC1CCCCC1NC(=O)c1cc([N+](=O)[O-])cc([N+](=O)[O-])c1 (configuration not stated) | inactive: -2%
42 | Cc1ccc(OP(=O)(Nc2ccc([N+](=O)[O-])cn2)Oc2ccc(C)cc2)cc1 | inactive: 3.1%
43 | CC(Cc1ccc(O)cc1)NCC(O)c1cc(O)cc(O)c1 (configuration not stated) | inactive: -2%
44 | Cc1ccc2nc3c(c(C)c2c1)CC(C(Cl)Cl)S3 (configuration not stated) | inactive: -0.2%
45 | NC(=O)Nc1ccc([As](=O)(O)O)cc1 | inactive: -2.3%
46 | N#CCCN(C(=O)COC(=O)C(O)(c1ccccc1)c1ccccc1)c1ccc(F)cc1 | inactive: -0.5%
47 | CCOP1(=S)c2c(C)nn(CCC#N)c2N=C(c2ccc(F)cc2)N1C (configuration not stated) | inactive: -0.3%
48 | CN(C(=O)Cc1ccccc1)[C@@H]1CC[C@]2(CCCO2)C[C@H]1N1CCCC1 | inactive: -1%
49 | CN(C)C(=O)c1cc([N+](=O)[O-])cc2c1-c1c(cc([N+](=O)[O-])cc1[N+](=O)[O-])C2=O | inactive: 3.9%
50 | O=[N+]([O-])c1ccc2c(c1)nnn2O | inactive: 0.4%
51 | CN(C(=O)Cc1ccc(Cl)c(Cl)c1)[C@H]1CC[C@@]2(CCCO2)C[C@@H]1N1CCCC1 | inactive: -3.5%
52 | CCn1cc(C(=O)O)c(=O)c2cc(F)c(N3CCNCC3)nc21 | inactive: -1.1%

Row | Structure (SMILES) | inhibition
53 | CCOP1(=S)c2c(C)nn(CCC#N)c2N=C(c2ccccc2F)N1C (configuration not stated) | inactive: 0.9%
54 | O=P(Nc1nccs1)(c1ccccc1)c1nc2ccccc2s1 (configuration not stated) | inactive: -3.8%
55 | O=P(Nc1nccs1)(Oc1ccccc1)Oc1ccccc1 | inactive: -1.1%
56 | CS(=O)(=O)c1cc([N+](=O)[O-])c2no[n+]([O-])c2c1 | inactive: 26.1%
57 | Nc1ccccc1[As](=O)(O)c1ccccc1 | inactive: -0.3%
58 | O=C(O)COc1ccc([As](=O)(O)O)cc1[N+](=O)[O-] | inactive: 0.3%
59 | Cc1ccc(NCCc2c([N+](=O)[O-])cc([N+](=O)[O-])cc2[N+](=O)[O-])cc1 | inactive: 22.7%
60 | Nc1cccc2c([As](=O)(O)O)cccc12 | inactive: 0.2%
61 | CCCOP(=S)(Nc1nc(N)cc(=O)[nH]1)OCCC | inactive: -0.6%
62 | COc1cc(C2NCCC3(OCCO3)C2(C)C)cc(OC)c1OC (configuration not stated) | inactive: 21%
63 | CCOP(=O)(Nc1cccc2ccccc12)OCC | inactive: 2.2%
64 | O=C(OC1CN2CCC1CC2)c1ccc(Cl)cc1 (configuration not stated) | inactive: 0.6%
65 | COc1cc(C(=O)NCC2(N3CCOCC3)CCCCC2)cc(Cl)c1OC(C)C | inactive: 0.4%
66 | O=[As](O)(O)c1cccnc1 | inactive: 0.9%
67 | CS(=O)(=O)c1ccc(Cl)c(NC(=O)COC(=O)C(O)(c2ccccc2)c2ccccc2)c1 | inactive: 0.2%
68 | O=[As](O)(c1cccc(O)c1)c1cccc(O)c1 | inactive: 1.1%
69 | Cc1cccc(OCC(=O)OC2CN3CCC2CC3)c1 (configuration not stated) | inactive: -1.5%
70 | COc1ccccc1CNC(=O)COC(=O)C(O)(c1ccccc1)c1ccccc1 | inactive: -0.1%
71 | CC(C)/C=N\N=C(\N)N[N+](=O)[O-] | inactive: 3%
72 | CN(C(=O)Cc1ccc(Cl)c(Cl)c1)[C@@H]1CCCC[C@H]1N1CCCC1 | inactive: 27.9%
73 | CC1(CBr)Cn2c(nc3ccccc3c2=O)S1 (configuration not stated) | inactive: -2.1%
74 | O=P1(Nc2ccccn2)COc2ccccc2OC1 | inactive: -1.4%
75 | CCC1=CC2Cc3nc4ccc(Cl)cc4c(N)c3C(C1)C2 (configuration not stated) | active: 83.2%
76 | CCOP(=O)(NC(=NC(C)c1ccccc1)NC(C)c1ccccc1)OCC (configuration not stated) | inactive: -1.6%
77 | CN(CCCl)Cc1cc(Cl)c(NC2=NCCN2)c(Cl)c1 | inactive: -4.1%
78 | CCOP(=O)(Nc1ccc(C)cn1)OCC | inactive: 0.3%

Row | Structure (SMILES) | inhibition
79 | O=P1(N(CCCl)CCCl)NCCC(C(F)(F)F)O1 (configuration not stated) | inactive: 0.8%
80 | Clc1n[nH]nc1-c1nn[nH][15n]1 | inactive: -1.6%
81 | CC(C)(C)C(=O)NC(Sc1ncccn1)C(Cl)(Cl)Cl (configuration not stated) | inactive: -0.6%
82 | Cc1ccc(S(=O)(=O)N(CCCN)CCCc2c(C)nc(N)[nH]c2=O)cc1 | inactive: -2.2%
83 | O=P1(Nc2ncccn2)COc2ccccc2OC1 | inactive: 0.7%
84 | Nc1cccc([As](=O)(O)c2ccccc2)c1 | inactive: -0.2%
85 | O=P1(Nc2ccc(Br)cn2)COc2ccccc2OC1 | inactive: 1.8%
86 | NS(=O)(=O)c1cccc(NC(=O)COC(=O)C(O)(c2ccccc2)c2ccccc2)c1 | inactive: -0.4%
87 | Cc1ccc(OCC(=O)OC2CN3CCC2CC3)cc1 (configuration not stated) | inactive: 0.5%
88 | O=[As](O)(c1cccs1)c1cccs1 | inactive: -0.7%
89 | Cc1nn(-c2ccccc2)c2c1P(=O)(N1CCOCC1)N(C)C(c1ccccc1)=N2 (configuration not stated) | inactive: -0.6%
90 | CC1CCC(C(C)C)C(OP(=O)(Nc2ccccn2)c2ccccc2)C1 (configuration not stated) | inactive: -3.4%
91 | Cc1ccc(C(=O)OC2CN3CCC2CC3)cc1 (configuration not stated) | inactive: -0.3%
92 | CCOc1ccccc1O[C@H](c1ccccc1)[C@H]1CNCCO1 | inactive: 3.9%
93 | CN(C)C1(CNC(=O)c2ccc(S(C)(=O)=O)cc2)CCCCC1 | inactive: 0.6%
94 | O=C(/C=C/c1ccccc1)OC1CN2CCC1CC2 (configuration not stated) | inactive: 1.7%
95 | CCCC1OP(=O)(Nc2ccccc2)OCC1CC (configuration not stated) | inactive: 1.7%
96 | O=[As](O)(c1ccccc1)c1ccc(O)cc1 | inactive: 0%
97 | O=[N+]([O-])c1ccc(O)c(/C=N/Nc2ccc([N+](=O)[O-])cc2[N+](=O)[O-])c1 | active: 95%
98 | CC(=O)NC(SC(=S)N(C)C)C(Cl)(Cl)Cl (configuration not stated) | inactive: 0.1%
99 | O=[N+]([O-])c1ncn(CCn2cnc([N+](=O)[O-])n2)n1 | inactive: 0.6%
100 | Cn1c(=O)c2[nH]cnc2n(C)c1=O | inactive: 2.1%
101 | O=C(OC1CN2CCC1CC2)c1cccc(Cl)c1 (configuration not stated) | inactive: -1.2%
102 | Nc1ccc([As](=O)(O)c2ccc([N+](=O)[O-])cc2)cc1 | inactive: 1%
